Assay results as given in patent publication US5574008A, “Biologically active fragments of glucagon-like insulinotropic peptide” (Eli Lilly and Company, priority 1994, dated 1996).

Target: T1, rat GLP-1 receptor (Rattus norvegicus, UniProt P32301)
T1 construct: expressed in transfected cells; host or cells: Dihydrofolate reductase-deficient Chinese hamster ovary cell line DXB-11; membrane preparation
T1 sequence (P32301 22-463): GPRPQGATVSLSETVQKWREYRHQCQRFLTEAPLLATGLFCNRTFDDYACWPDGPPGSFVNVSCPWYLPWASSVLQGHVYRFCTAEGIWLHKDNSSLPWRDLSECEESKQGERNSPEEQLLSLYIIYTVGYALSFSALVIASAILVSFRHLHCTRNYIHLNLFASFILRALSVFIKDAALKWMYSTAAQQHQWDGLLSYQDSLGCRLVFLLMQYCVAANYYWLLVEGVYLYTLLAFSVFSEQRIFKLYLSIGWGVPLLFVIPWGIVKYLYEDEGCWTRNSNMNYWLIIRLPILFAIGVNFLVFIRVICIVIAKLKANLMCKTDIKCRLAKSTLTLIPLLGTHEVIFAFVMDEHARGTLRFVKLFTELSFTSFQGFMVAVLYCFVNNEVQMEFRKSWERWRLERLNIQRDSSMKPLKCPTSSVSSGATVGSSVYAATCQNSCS
Assay: In vitro GLP-1 agonist cAMP assay (particle concentration fluorescence immunoassay, membrane preparation)
Type: biochemical
From the text: In vitro GLP-1 Agonist cAMP Assay
The published DNA sequence for the rat GLP-1 receptor (Thorens B., et. al. Proc. Natl. Acad. Sci. U.S.A. 89:8641-8645 (1992) and the dihydrofolate reductase resistance marker gene were used in conjunction with Polymerase Chain Reaction (PCR) techniques to construct an expression vector. The dihydrofolate reductase-deficient mutant Chinese hamster ovary cell line (DXB-11) was transformed with the vector resulting in a recombinant Chinese hamster ovary cell line that expressed the rat GLP-1 membrane receptor.
Cells were grown to confluency in 10% dialyzed fetal bovine serum/high glucose Dulbecco's Modified Eagle Medium with 0.1% proline at 37° C. The cell were then harvested, and membranes were prepared by first washing the cells with phosphate buffered saline (PBS), then twice with cold buffer (25 mM 4-(2-hydroxyethyl)-1 piperazineethanesulfonic acid (HEPES), 2 mM MgCl2, 1 mM ethylenedinitrilo-tetraacetic acid (EDTA), 20 μg/ml Leupeptin, 1 mM phenylmethyl sulfonyl fluoride (PMSF), 2 μg/ml Aprotinin, 50 μg/ml Trypsin Inhibitor, pH 8.0). The washed cells were resuspended in cold buffer, lysed in a glass Teflon homogenizer and then centrifuged at 35,300 g for 30 minutes at 4° C. The supernatant was removed and the pellet resuspended in cold buffer and homogenized. Two hundred μl aliquots (3.2 mg/ml) were stored at -80° C.
Briefly, 10 μl of membrane prep (80 μg/ml) was preincubated with 10 μl of test compound or reference compound in buffer (25 mM HEPES, 0.2% (w/v) bovine serum albumin (BSA), pH 7.6) at 32° C. for 10 minutes. Five μl of reaction buffer (25 mM HEPES, 0.2% (w/v) BSA, 13 mM (CH3 C00)2 Mg.4H2 O, 4 mM adenosine-5'-triphosphate (ATP), 40 nM guanosine 5'-O-3'thiotriphosphate (GTP-∂-s), 25 mM creatine phosphate, creatine kinase 250 U/ml, 1 mM 3-Isobutyl-1-methyl xanthine (IBMX), pH 7.6) was added and incubated for an additional 30 minutes. Incubations were stopped by adding 25 μl 10 mM EDTA and fluorescent tracer (cAMP-β phycoerythrin conjugate).
This assay, a particle concentration fluorescence immunoassay, was based on the competition between unlabelled cAMP and a fixed amount of fluorescent labelled cAMP for a limited number of binding sites on a cAMP specific antibody. By keeping the quantity of fluorescent ligand and antibody fixed, the amount of fluorescent ligand bound by the antibody was inversely proportional to the concentration of unlabelled cAMP. The antibody-bound cAMP was then captured by anti-rabbit IgG coated assay particles. Separation of the bound antibody fraction was achieved by filtration on Fluoricon®-Ca Assay Plates. After measuring the fluorescence in the pellet, the amount of bound fluorescent cAMP was calculated. The rate of cAMP production (pmol/min/mg) was then determined by interpolation from a standard curve.

cAMP produced (Dose 0.005 nM): 25.481 pmol/min/mg
cAMP produced (Dose 0.01 nM): 28.494 pmol/min/mg
cAMP produced (Dose 0.02 nM): 30.453 pmol/min/mg
cAMP produced (Dose 0.05 nM): 30.453 pmol/min/mg
cAMP produced (Dose 0.1 nM): 42.567 pmol/min/mg
cAMP produced (Dose 0.4 nM): 59.037 pmol/min/mg
cAMP produced (Dose 1 nM): 68.697 pmol/min/mg
cAMP produced (Dose 4 nM): 70.282 pmol/min/mg
cAMP produced (Dose 10 nM): 67.494 pmol/min/mg
cAMP produced (Dose 100 nM): 65.665 pmol/min/mg
stimulation of cAMP production (fluorescent intensity) (result in words): increased cAMP concentration
Substance: GLP-1(7-37)OH [reference compound]
